This is an account of results in ChEMBL document CHEMBL5543102, “Allosteric Activation of α7 Nicotinic Acetylcholine Receptors by Novel 2-Arylamino-thiazole-5-carboxylic Acid Amide Derivatives for the Improvement of Cognitive Deficits in Mice” (J Med Chem, 2024).

Amino acid sequences for entries named in this document (tags omitted). A change or cut given only in a name is not applied to a line headed by its entry.
UniProt P04757: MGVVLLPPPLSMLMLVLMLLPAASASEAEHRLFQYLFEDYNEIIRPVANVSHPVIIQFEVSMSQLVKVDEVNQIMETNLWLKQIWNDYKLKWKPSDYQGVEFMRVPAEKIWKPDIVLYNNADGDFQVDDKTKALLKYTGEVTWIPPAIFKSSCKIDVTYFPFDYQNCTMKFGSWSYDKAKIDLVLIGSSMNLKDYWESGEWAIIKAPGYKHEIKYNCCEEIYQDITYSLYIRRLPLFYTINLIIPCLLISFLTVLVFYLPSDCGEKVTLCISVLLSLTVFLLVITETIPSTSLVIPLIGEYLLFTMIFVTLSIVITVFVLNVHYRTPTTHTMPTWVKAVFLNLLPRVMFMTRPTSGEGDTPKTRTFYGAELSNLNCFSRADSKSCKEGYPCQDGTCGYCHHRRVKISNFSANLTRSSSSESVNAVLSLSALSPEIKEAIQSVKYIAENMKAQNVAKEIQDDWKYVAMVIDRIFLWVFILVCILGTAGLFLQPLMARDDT
UniProt P12392: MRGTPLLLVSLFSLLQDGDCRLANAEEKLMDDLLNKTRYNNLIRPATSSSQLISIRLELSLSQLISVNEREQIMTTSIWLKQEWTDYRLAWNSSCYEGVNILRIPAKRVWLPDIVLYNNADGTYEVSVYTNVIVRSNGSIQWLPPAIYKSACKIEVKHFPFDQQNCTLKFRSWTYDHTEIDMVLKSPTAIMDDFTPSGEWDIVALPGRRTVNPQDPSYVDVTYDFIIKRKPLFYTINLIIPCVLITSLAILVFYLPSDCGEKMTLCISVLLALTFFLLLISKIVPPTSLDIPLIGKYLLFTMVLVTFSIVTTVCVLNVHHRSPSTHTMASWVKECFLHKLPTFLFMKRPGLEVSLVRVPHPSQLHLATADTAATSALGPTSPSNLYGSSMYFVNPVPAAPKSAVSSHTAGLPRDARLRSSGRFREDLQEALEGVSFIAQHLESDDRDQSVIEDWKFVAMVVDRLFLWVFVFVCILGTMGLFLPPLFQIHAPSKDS
UniProt P09483: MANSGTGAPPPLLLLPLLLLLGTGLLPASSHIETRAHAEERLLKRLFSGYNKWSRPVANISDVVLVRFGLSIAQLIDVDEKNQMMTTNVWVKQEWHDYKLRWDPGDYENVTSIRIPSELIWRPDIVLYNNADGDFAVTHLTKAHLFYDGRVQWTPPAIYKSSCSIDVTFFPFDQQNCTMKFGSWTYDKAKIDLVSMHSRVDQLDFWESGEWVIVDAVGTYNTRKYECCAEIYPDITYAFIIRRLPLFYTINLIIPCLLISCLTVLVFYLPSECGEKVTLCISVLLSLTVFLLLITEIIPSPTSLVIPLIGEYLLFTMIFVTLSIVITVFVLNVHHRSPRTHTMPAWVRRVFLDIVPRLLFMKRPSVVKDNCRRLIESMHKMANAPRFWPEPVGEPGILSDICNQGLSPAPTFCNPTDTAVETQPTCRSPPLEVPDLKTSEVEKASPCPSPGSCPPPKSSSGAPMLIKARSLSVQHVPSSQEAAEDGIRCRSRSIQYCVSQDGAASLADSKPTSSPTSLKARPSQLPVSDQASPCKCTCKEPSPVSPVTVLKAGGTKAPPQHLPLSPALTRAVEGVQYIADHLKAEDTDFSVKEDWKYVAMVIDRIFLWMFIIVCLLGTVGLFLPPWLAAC
UniProt P12390: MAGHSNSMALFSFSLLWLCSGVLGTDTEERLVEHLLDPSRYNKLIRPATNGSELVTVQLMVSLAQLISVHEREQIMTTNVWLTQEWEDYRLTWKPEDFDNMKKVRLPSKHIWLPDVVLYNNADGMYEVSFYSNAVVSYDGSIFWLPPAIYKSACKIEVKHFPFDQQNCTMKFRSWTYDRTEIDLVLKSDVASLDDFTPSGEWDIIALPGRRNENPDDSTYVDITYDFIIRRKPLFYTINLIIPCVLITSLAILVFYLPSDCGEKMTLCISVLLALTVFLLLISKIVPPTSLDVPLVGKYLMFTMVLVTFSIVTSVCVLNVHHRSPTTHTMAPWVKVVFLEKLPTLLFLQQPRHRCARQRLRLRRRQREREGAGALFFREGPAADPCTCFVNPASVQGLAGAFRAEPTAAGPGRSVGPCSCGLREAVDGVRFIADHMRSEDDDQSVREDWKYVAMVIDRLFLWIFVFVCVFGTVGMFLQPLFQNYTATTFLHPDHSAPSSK

Structures are written as SMILES. Calls of active or inactive are those of the source. The rule behind the calls is not given here.

Test [1] concerns the target Neuronal acetylcholine receptor; alpha3/beta4 (Rattus norvegicus) (UniProt P04757+P12392). Kind of test: Positive allosteric modulation of rat alpha3beta4 nAChR expressed in xenopus laevis oocytes assessed as increase in acetylcholine induced channel current amplitude at 10 uM at -90 mV holding potential measured after 24 to 72 hrs by two-electrode voltage clamp recording method. It is filed as cell-based. The note with it: Oocyte, time 24-72 hrs. In general terms: Two-electrode voltage clamp is typically applied to oocytes expressing channels or transporters.

The target in test [2] is Neuronal acetylcholine receptor; alpha4/beta2 (Rattus norvegicus) (UniProt P09483+P12390). Kind of test: Positive allosteric modulation of rat alpha4beta2 nAChR expressed in xenopus laevis oocytes assessed as increase in acetylcholine induced channel current amplitude at 10 uM at -90 mV holding potential measured after 24 to 72 hrs by two-electrode voltage clamp recording method. It is filed as cell-based. The note with it: Oocyte, time 24-72 hrs.

As for `Cc1cccc(Cl)c1NC(=O)c1sc(Nc2ccc(F)c(Cl)c2)nc1N`, the result in test [1] and in test [2] was inactive.
